Values of other authors as cited in US11826432B2, “Linkers, conjugates and applications thereof” (priority 2021, dated 2023).

Conditions: patients; cited from earlier work

Enhertu
interstitial lung disease caused: more than 10%
